For data set [1], the system named is FGF2(WT), FGF2(−), FGF2(Hi), FGF2(Lo) mice. The conditions noted are these: mouse, in vivo.
Data set [2] has the same test system. Put plainly: In vivo model for acute Doxorubicin effects: mortality and body weight. Also on record: species or system mouse. Conditions: female FGF2(−) mice, 5-6 days post Dox. The text has this:
In vivo model for acute Doxorubicin effects.
In vivo model for acute cardiotoxic effects. […] Hearts were then collected for biochemical analyses.

Usually mortality stands for the share of the test organisms that died. High values mean fewer survivors, low ones more survivors. As to Doxorubicin, the HR in data set [1] turned out to be 645 ± 73 beats/min. In data set [2], this substance yielded a mortality of 10%.

(Values after patent publication US20210040485A1, “Elimination or Neutralization of Endogenous High Molecular Weight FGF-2 Increases Cardiac Resistance to Doxorubicin-Induced Damage” (University of Manitoba, priority 2018, published 2021).)
